Experimental data reported in US5280119A, “Heterocyclic amine-boranes, and method of inhibiting DNA topoisomerase activity and/or combatting inflammation, hyperlipidemia, and/or neoplasia using amine-borane compounds” (dated 1994).

Assays:
[1] = Hypolipidemic screen in normal rats (serum lipids, body weight, food); conditions: Sprague Dawley male rats, 8 mg/kd/day orally (clofibrate 150 mg/kg/day)
[2] = system: Ehrlich ascites carcinoma; assay: in vivo Ehrlich ascites carcinoma screen; conditions: 20 mg/kg/day I.P., CF1 male mice
[3] = system: HeLa-S^3 suspended cervical carcinoma; assay: Cytotoxicity, HeLa-S3; conditions: hela-s3 cells
osteosarcoma TE418 = assay: Cytotoxicity, osteosarcoma TE418; conditions: for ED50 Cytotoxicity, Human Osteo-Sarcoma: te418 cells
Lewis lung carcinoma = assay: In vivo Lewis lung carcinoma activity; conditions: 8 mg/kg/day I.P.
[4] = Anti-inflammatory activity, carrageenan paw; conditions: CF1 Mice, 20 mg/kg × 2 (table head; b1373: 8 mg/kg i.p. 3 hours and 30 minutes before carrageenan)
glioma EH 118 MG = assay: Cytotoxicity, glioma EH 118 MG; conditions: eh 118 mg cells
[5] = system: colorectal adenocarcinoma SW480; assay: Cytotoxicity, colorectal adenocarcinoma SW480; conditions: for ED50 Cytotoxicity, Human Colon SW480: sw480 cells; for activity against human adenocarcinoma colorectal SW480 growth (in words): text summary of Table 4
[6] = system: lung bronchogenic MB-9812; assay: Cytotoxicity, lung bronchogenic MB-9812; conditions: concentration which inhibits 50% of cell growth
[7] = Hypolipidemic screen in normal mice; conditions: CF1 male mice, IP; for Serum Cholesterol Day 9 / Serum Cholesterol Day 16 / Serum Triglycerides Day 16: N = 6
[8] = system: murine L1210 lymphoid leukemia; assay: Cytotoxicity, L1210 lymphoid leukemia; conditions: trypan blue exclusion
[9] = system: KB epidermoid nasopharynx; assay: Cytotoxicity, KB epidermoid nasopharynx; conditions: for ED50 Cytotoxicity, Human KB: kb cells; for activity in the KB nasopharynx screen (in words): text summary of Table 4
[10] = system: P388 lymphocytic leukemia; assay: Cytotoxicity, P388 lymphocytic leukemia; conditions: for ED50 Cytotoxicity, P388 Lymphocytic Leukemia: p388 cells
[11] = system: human Tmolt3 acute lymphoblastic T cell leukemia; assay: Cytotoxicity, Tmolt3; conditions: trypan blue exclusion

SMILES | ED50 Cytotoxicity, Human HeLa-S^3 [3] [µg/mL] | ED50 Cytotoxicity, Human Osteo-Sarcoma (osteosarcoma TE418) [µg/mL] | % of Control, anti-inflammatory (paw weight increase) [4] | ED50 Cytotoxicity, Human Glioma (glioma EH 118 MG) [µg/mL] | ED50 Cytotoxicity, Human Colon SW480 [5] [µg/mL] | ED50 Cytotoxicity, Human Lung Bronchogenic [6] [µg/mL] | ED50 Cytotoxicity, L1210 Lymphoid Leukemia [8] [µg/mL] | ED50 Cytotoxicity, Human KB [9] [µg/mL] | ED50 Cytotoxicity, P388 Lymphocytic Leukemia [10] [µg/mL] | ED50 Cytotoxicity, Human lymphocyte Tmolt3 [11] [µg/mL] | other results
CC[C@H](C)C(=O)O[C@H]1C[C@@H](C)C=C2C=C[C@H](C)[C@H](CC[C@@H]3C[C@@H](O)CC(=O)O3)[C@H]21 | – | – | – | – | – | – | – | – | – | – | Serum Cholesterol Day 7 [1]: 85 ± 4% of Control; Serum Cholesterol Day 14 [1]: 82 ± 5% of Control; Serum Triglycerides Day 7 [1]: 91 ± 5% of Control; Serum Triglycerides Day 14 [1]: 86 ± 7% of Control
Cc1[nH]cc[n+]1[BH2-]C#N | 1.44 (≈ 11.9 µM) | 6.48 (≈ 53.6 µM) | 62 % of Control | 2.06 (≈ 17 µM) | 4.66 (≈ 38.5 µM) | 3.09 (≈ 25.5 µM) | 3.56 (≈ 29.4 µM) | 2.18 (≈ 18 µM) | 4.47 (≈ 37 µM) | 0.65 (≈ 5.37 µM) | inhibition of growth, in vivo Ehrlich ascites carcinoma [2]: 78%; T/C%, in vivo Lewis lung carcinoma (Lewis lung carcinoma): 163%; Serum Cholesterol Day 9 ([7]; 8 Mg/kg/day): 89 ± 8% of Control; Serum Cholesterol Day 16 ([7]; 8 Mg/kg/day): 76 ± 6% of Control; Serum Triglycerides Day 16 ([7]; 8 Mg/kg/day): 68 ± 5% of Control; activity in the KB nasopharynx screen (in words) [9]: good activity
C[N+](C)(C)[BH2-]C(=O)n1ccnc1 | 2.46 (≈ 14.7 µM) | 1.92 (≈ 11.5 µM) | 86 % of Control | 0.472 (≈ 2.83 µM) | 1.69 (≈ 10.1 µM) | 1.28 (≈ 7.66 µM) | 1.78 (≈ 10.7 µM) | 1.85 (≈ 11.1 µM) | 4.88 (≈ 29.2 µM) | 2.17 (≈ 13 µM) | inhibition of growth, in vivo Ehrlich ascites carcinoma [2]: 71%; inhibition of growth of human osteosarcoma (in words) (osteosarcoma TE418; text summary of Table 4): significantly inhibited; activity against human adenocarcinoma colorectal SW480 growth (in words) [5]: showed activity; Serum Cholesterol Day 9 ([7]; 8 Mg/kg/day): 72 ± 7% of Control; Serum Cholesterol Day 16 ([7]; 8 Mg/kg/day): 68 ± 5% of Control; Serum Triglycerides Day 16 ([7]; 8 Mg/kg/day): 57 ± 5% of Control; serum triglyceride levels lowered ([7]; doses of Table 6): 43%; activity in the KB nasopharynx screen (in words) [9]: good activity
Nc1ccn([C@@H]2O[C@H](CO)[C@@H](O)[C@@H]2O)c(=O)n1 | 2.13 (≈ 8.76 µM) | – | – | 1.88 (≈ 7.73 µM) | 3.42 (≈ 14.1 µM) | 4.60 (≈ 18.9 µM) | 2.76 (≈ 11.3 µM) | 2.54 (≈ 10.4 µM) | 4.06 (≈ 16.7 µM) | 2.67 (≈ 11 µM) | –
O=c1[nH]cc(F)c(=O)[nH]1 | 2.47 (≈ 19 µM) | – | – | 1.28 (≈ 9.84 µM) | 3.09 (≈ 23.8 µM) | – | 1.41 (≈ 10.8 µM) | 1.25 (≈ 9.61 µM) | – | 2.14 (≈ 16.5 µM) | –
NC1(C(=O)O)CCCC1 | 2.38 (≈ 18.4 µM) | 6.18 (≈ 47.8 µM) | – | 5.89 (≈ 45.6 µM) | 3.81 (≈ 29.5 µM) | 4.36 (≈ 33.8 µM) | 3.08 (≈ 23.8 µM) | 5.71 (≈ 44.2 µM) | – | 2.38 (≈ 18.4 µM) | –
N#C[BH2-][NH+]1CCNCC1 | 2.56 (≈ 20.5 µM) | 3.64 (≈ 29.1 µM) | 83 % of Control | 3.98 (≈ 31.8 µM) | 7.21 (≈ 57.7 µM) | 6.02 (≈ 48.2 µM) | 3.67 (≈ 29.4 µM) | 7.42 (≈ 59.4 µM) | 9.93 (≈ 79.5 µM) | 1.08 (≈ 8.64 µM) | T/C%, in vivo Lewis lung carcinoma (Lewis lung carcinoma): inactive; Serum Cholesterol Day 9 ([7]; 8 Mg/kg/day): 66 ± 5% of Control; Serum Cholesterol Day 16 ([7]; 8 Mg/kg/day): 66 ± 6% of Control; Serum Triglycerides Day 16 ([7]; 8 Mg/kg/day): 69 ± 5% of Control
C[N+]1([BH2-]C#N)CCOCC1 | 2.30 (≈ 16.4 µM) | 6.24 (≈ 44.6 µM) | 91 % of Control | 2.57 (≈ 18.4 µM) | 6.22 (≈ 44.4 µM) | 5.37 (≈ 38.4 µM) | 4.06 (≈ 29 µM) | 6.39 (≈ 45.6 µM) | 3.64 (≈ 26 µM) | 1.63 (≈ 11.6 µM) | inhibition of growth, in vivo Ehrlich ascites carcinoma [2]: 100%; Serum Cholesterol Day 9 ([7]; 5 Mg/kg/day): 84 ± 7% of Control; Serum Cholesterol Day 16 ([7]; 5 Mg/kg/day): 73 ± 8% of Control; Serum Triglycerides Day 16 ([7]; 5 Mg/kg/day): 95 ± 11% of Control; activity in the murine P388 lymphocytic screen (in words) ([10]; text summary of Table 4): active
[BH3-][NH+]1CCOCC1 | 2.24 (≈ 22.2 µM) | 3.31 (≈ 32.8 µM) | 55 % of Control | 8.36 (≈ 82.8 µM) | 3.99 (≈ 39.5 µM) | 6.03 (≈ 59.7 µM) | 3.75 (≈ 37.1 µM) | 6.31 (≈ 62.5 µM) | 4.49 (≈ 44.5 µM) | 3.53 (≈ 35 µM) | activity against human adenocarcinoma colorectal SW480 growth (in words) [5]: showed activity; Serum Cholesterol Day 9 ([7]; 20 Mg/kg/day): 67 ± 6% of Control; Serum Cholesterol Day 16 ([7]; 20 Mg/kg/day): 64 ± 5% of Control; Serum Triglycerides Day 16 ([7]; 20 Mg/kg/day): 74 ± 9% of Control
NC(=O)NO | 1.96 (≈ 25.8 µM) | 7.57 (≈ 99.5 µM) | – | 2.27 (≈ 29.8 µM) | 4.76 (≈ 62.6 µM) | 7.33 (≈ 96.4 µM) | 2.67 (≈ 35.1 µM) | 5.29 (≈ 69.6 µM) | – | 3.18 (≈ 41.8 µM) | –
N#C[BH2-][NH+]1CCCCC1 | 2.35 (≈ 19 µM) | 2.97 (≈ 24 µM) | 77 % of Control | 4.93 (≈ 39.8 µM) | 6.32 (≈ 51 µM) | 5.41 (≈ 43.6 µM) | 3.83 (≈ 30.9 µM) | 7.74 (≈ 62.4 µM) | 4.49 (≈ 36.2 µM) | 2.85 (≈ 23 µM) | Serum Cholesterol Day 9 ([7]; 5 Mg/kg/day): 81 ± 8% of Control; Serum Cholesterol Day 16 ([7]; 5 Mg/kg/day): 66 ± 3% of Control; Serum Triglycerides Day 16 ([7]; 5 Mg/kg/day): 70 ± 7% of Control
CCOC(=O)C(C)(C)Oc1ccc(Cl)cc1 | – | – | – | – | – | – | – | – | – | – | Serum Cholesterol Day 7 [1]: 89 ± 7% of Control; Serum Cholesterol Day 14 [1]: 86 ± 5% of Control; Serum Triglycerides Day 7 [1]: 83 ± 6% of Control; Serum Triglycerides Day 14 [1]: 74 ± 7% of Control; Serum Cholesterol Day 9 ([7]; 150 Mg/kg/day): 88 ± 7% of Control; Serum Cholesterol Day 16 ([7]; 150 Mg/kg/day): 86 ± 6% of Control; Serum Triglycerides Day 16 ([7]; 150 Mg/kg/day): 75 ± 5% of Control

≈ marks a conversion by molar mass, not a printed value.
